Experiments:
CYP3A4 = CYP3A4 (Homo sapiens, UniProt P08684); test: Cytochrome inhibition, fluorometric microtiter plate assay; settings: comparative examples: compounds of WO 00/06254, tested form: oxalate
[1] = target: human histamine H3 receptors (Homo sapiens, UniProt Q9Y5N1); test: H3 binding ([125I]iodoproxyfan displacement on membranes); settings: comparative examples: compounds of WO 00/06254; tested form: oxalate
CYP2D6 = CYP2D6 (Homo sapiens, UniProt P10635); test: Cytochrome inhibition, fluorometric microtiter plate assay; settings: @ 1 μM; comparative examples: compounds of WO 00/06254; tested form: oxalate

Protein sequences, listed by entry. Tags and fused reporters are not part of them.
UniProt P08684, whole entry: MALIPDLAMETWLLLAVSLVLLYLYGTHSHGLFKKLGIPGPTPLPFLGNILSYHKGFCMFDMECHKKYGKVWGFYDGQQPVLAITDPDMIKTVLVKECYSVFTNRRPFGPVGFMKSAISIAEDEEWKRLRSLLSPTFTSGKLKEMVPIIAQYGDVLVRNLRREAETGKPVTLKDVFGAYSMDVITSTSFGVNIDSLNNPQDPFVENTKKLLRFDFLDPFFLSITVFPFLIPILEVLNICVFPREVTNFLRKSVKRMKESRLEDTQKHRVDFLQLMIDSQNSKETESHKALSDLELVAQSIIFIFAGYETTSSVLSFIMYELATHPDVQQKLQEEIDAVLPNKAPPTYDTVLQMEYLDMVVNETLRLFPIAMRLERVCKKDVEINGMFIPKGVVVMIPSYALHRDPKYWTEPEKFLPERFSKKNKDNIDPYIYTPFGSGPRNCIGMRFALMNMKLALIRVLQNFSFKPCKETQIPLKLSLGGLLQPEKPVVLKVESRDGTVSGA
UniProt Q9Y5N1, whole entry: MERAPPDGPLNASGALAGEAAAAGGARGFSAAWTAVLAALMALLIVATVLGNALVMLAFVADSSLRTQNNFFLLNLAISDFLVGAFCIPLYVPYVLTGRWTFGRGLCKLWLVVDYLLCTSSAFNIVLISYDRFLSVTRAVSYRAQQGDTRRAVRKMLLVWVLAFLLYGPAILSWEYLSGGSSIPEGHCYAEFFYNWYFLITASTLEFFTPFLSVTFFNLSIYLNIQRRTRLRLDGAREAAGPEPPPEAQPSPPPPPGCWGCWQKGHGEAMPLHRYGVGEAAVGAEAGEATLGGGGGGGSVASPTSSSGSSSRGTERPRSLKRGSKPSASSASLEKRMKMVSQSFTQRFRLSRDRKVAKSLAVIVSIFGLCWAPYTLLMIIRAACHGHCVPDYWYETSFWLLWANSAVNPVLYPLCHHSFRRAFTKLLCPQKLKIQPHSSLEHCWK
UniProt P10635, whole entry: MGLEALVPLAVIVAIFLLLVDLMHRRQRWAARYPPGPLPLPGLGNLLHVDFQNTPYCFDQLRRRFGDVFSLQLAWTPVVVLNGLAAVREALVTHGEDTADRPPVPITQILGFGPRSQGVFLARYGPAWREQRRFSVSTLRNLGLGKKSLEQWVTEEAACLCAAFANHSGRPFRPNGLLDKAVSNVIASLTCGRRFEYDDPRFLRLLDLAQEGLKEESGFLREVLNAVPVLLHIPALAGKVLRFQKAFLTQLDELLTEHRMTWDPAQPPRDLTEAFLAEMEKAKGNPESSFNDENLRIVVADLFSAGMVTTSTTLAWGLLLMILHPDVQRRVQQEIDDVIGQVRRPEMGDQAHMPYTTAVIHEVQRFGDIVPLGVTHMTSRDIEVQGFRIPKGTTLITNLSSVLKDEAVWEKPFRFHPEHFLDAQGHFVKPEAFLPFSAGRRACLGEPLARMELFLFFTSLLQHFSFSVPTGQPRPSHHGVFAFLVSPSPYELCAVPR

IC50 (CYP3A4; read-out: CYP3A4 cytochrome inhibition (IC50, concentrations for 50% inhibition)) | Ki [1] | CYP2D6 cytochrome inhibition (CYP2D6) | CYP3A4 cytochrome inhibition (CYP3A4; @ 1 μM) | SMILES
13 µM |  |  |  | Clc1ccc(CCCOCCCN2CCCCC2)cc1
 | 0.00053 µM | 67% @ 1 μM | 52% @ 1 μM | Clc1ccc2c(NCCc3ccc(OCCCN4CCCCC4)cc3)ccnc2c1

Source: US8076329B2, “Histamine H3-receptor ligands and their therapeutic applications” (Bioprojet, priority 2005, dated 2011)
